Laboratory results: patent US20240197839A1, “Recombinant Human Acid Alpha-Glucosidase and Uses Thereof” (Amicus Therapeutics, Inc., priority 2021, published 2024)

How the values were obtained:
[1] = target: cation-independent mannose-6-phosphate receptor (CIMPR); assay: CIMPR affinity column, elution with free M6P gradient, fractions by GAA activity
[2] = target: cellular receptors (on normal and Pompe fibroblast cells); assay: cell-based or functional assay
[3] = target: cation-independent mannose-6-phosphate receptor (CIMPR); assay: M6P receptor (CIMPR) plate binding assay
[4] = target: cation-independent mannose-6-phosphate receptor (CIMPR); assay: CIMPR affinity chromatography, different production batches (FIG. 5)
[5] = target: cation-independent mannose-6-phosphate receptor (CIMPR); assay: CIMPR affinity column, same condition (FIG. 5)

percent of rhGAA that did not bind (flow through) [1] [%] | percent of rhGAA with M6P that can target it to the CIMPR (bound fraction) [1] [%] | concentration that saturates cellular receptors (uptake into fibroblasts, internalized GAA activity) [2] [nM] | uptake efficiency constant (Kuptake) [2] [nM] | Kd [3] [nM] | percent CIMPR receptor binding [4] [%] | percent of rhGAA bound [5] [%] | Substance
78 | 22 | 250 | 56 | – | – | – | LUMIZYME® (alglucosidase alfa, conventional rhGAA product) (from UniProt P10253 57-952) (enzyme)
– | – | 20 | – | 2 to 4 | > 70 | > 70 | ATB200 rhGAA (recombinant human acid α-glucosidase produced from CHO cell line GA-ATB200) (from UniProt P10253 57-952) (enzyme)
73 | 27 | – | – | – | – | – | MYOZYME® (alglucosidase alfa, conventional rhGAA product) (from UniProt P10253 57-952) (enzyme)
